Laboratory results reported in patent publication US9738657B2, “Highly efficient polarizing agents for dynamic nuclear polarization” (Bruker Biospin S.A.S., priority 2013, dated 2017).

Assay: Solubility in Glycerol/H2O (60/40)
Settings: glycerol/water (60/40), aqueous with cosolvent or surfactant or cyclodextrin

Question: For [O]N1C2(CCOCC2)CC(N2CC(O)CN(C3CC4(CCOCC4)N([O])C4(CCOCC4)C3)C2=O)CC12CCOCC2 (stereo not shown) [Compound 69, 5-Hydroxy-1,3-bis(7-oxyl-3,11-dioxa-7-azadispiro[5.1.5.3]-hexadec-15-yl)tetrahydropyrimidin-2(1H)-one], which solubility is on record?
Answer: > 10 mM
